For one substance, IC50 results are on record in patent US6541619B1 (Daewoong Pharmaceutical Co., Ltd., priority 1997, dated 2003).

The experiment has as its system CHO-K1 cells. The experiment is described as follows: Cytotoxicity to CHO-K1 cells that do not express hEGF receptors (MTT). Type of experiment: cell-based. Conditions: CHO-K1, serum-free media, 2 days. The protocol:
Cells were cultured on 96 well plates at 1×10^4 cells/ml for 1 day, and received serum-free media containing control and samples, and incubated for additional 2 days. Survival rate of the cells was measured with MTT, in an analogous manner as in Example 15(see: Table 4).

For the substance “hEGF-angiogenin: fusion protein of EGF-angiogenin expressed from pTE4083, SEQ ID No:19”, the IC50 (as a rule, the concentration at which inhibition is half-maximal) is more than 100 nM.
